The test has as its target GLFG_(52×12). Kind of test: partitioning into the condensed FG phase (confocal laser scanning microscopy); FG particles of unlabelled FG domain in assay buffer (50 mM Tris/HCl, 5 mM DTT, 150 mM NaCl) mixed with fluorescent probe: 6 μM mCherry, 3 μM EGFP, 1 μM NTR or 1.5 μM NTR pre-incubated with 1 μM cargo; partition coefficient = signal in the centre of the particle / buffer; 21 °C.

Turning to “NTF2·RanGDP complex (Ran labelled with Atto488) (from UniProt P61970 1-127; P62826 1-216)”, the partition coefficient is more than 200.

For the origin of these results see article PMC9918544.
